Source: article PMC8231349 (Journal of Enzyme Inhibition and Medicinal Chemistry, 2021)

Key:
[1] = tested on: human bronchial epithelium cells (BEAS-2B); experiment: MTT cell viability assay, BEAS-2B; assay type: cell-based; details: BEAS-2B healthy lung epithelial cells, 72 h, vs. 5-FU at the same doses
Method: Experiments were performed on human prostate cancer cells (DU145; ATCC HTB-81), human lung cancer cells (A549; ATCC CCL-185-LUC2) and human bronchial epithelium cells (BEAS-2B; ATCC CRL-9609). Cells were grown in Dulbecco's modified Eagle's medium (DMEM) supplemented with 10% of heat-inactivated foetal bovine serum (FBS), 100 U/ml penicillin and 100 μg/ml streptomycin (Sigma-Aldrich, Steinheim, Germany). Cells were incubated at 37 °C in a humidified atmosphere with 5% CO2. […] Cells were seeded into 96-well plates at a density of 7,0 × 10[3] cells/well in 100 µl of culture medium. After 24 h, cells were treated with the compounds at three different concentrations (1 µM, 10 µM and 50 µM) for 72 h. Following treatments, 0.5 mg/ml of 3-[4,5-dimethylthiazol-2-yl]-2,5-diphenyltetrazolium bromide (MTT) (Sigma Aldrich) was added to each well and incubated for 4 h at 37 °C. Finally, DMSO was used to dissolve formazan salts and absorbance was measured at 570 nm in a microplate reader (Biotek Synergy-HT). Eight replicate wells were used for each group. Four independent experiments were performed.
. Furthermore, to compare the cytotoxic effect against cancer vs. normal cell lines, compound 3 has been tested towards the non-tumorigenic human lung epithelial cell line (BEAS-2B) selected as a healthy cell model (Figure 5). […].

[2] = tested on: esterase from the porcine liver; experiment: In vitro stability in porcine esterase solution (HPLC); assay type: in vitro ADME; details: after two hours
Method: The HPLC analysis of samples at various time intervals from in vitro stability in different buffers and porcine esterase solution was performed on Shimadzu Prominence-i LC-2030C 3 D Plus equipped with RID20A. Detector chromatographic separation were carried out using Chromolith SpeedROD RP […], Merck. Spectra were analysed in 200–800 nm range with 1.2 nm resolution. The column was maintained at 30 °C and eluted under gradient conditions from 100% to 0% of eluent A over 3 min, at a flow rate of 5 ml min^−1. Eluent A: water/trifluoroacetic acid (0.1%, v/v); eluent B: acetonitrile/ trifluoroacetic acid (0.1%, v/v).
0.001 g of lyophilised powder of esterase from the porcine liver (Sigma-Aldrich, St. Louis, Missouri, USA) was reconstituted in 1.0 ml PBS buffer (0.01 M, pH 7.4) to make an aqueous porcine esterase solution (5 U/mL), and then pre-thermostated at 37 °C. To a test tube containing 1.85 ml of PBS buffer, 0.15 ml from the stock solution of the test compound was added. […] Pseudo-first-order rate constant for the hydrolysis was determined from the slope of linear plots of the natural logarithm (ln) of the AUC of the peak at time t (AUCt) against time. Half-life (t1/2) was calculated according to Equation (1): (1) t1/2 = ln 2/k were k is the pseudo-first-order rate constant. […]

Percentage of compound remaining [2]: approximately 50%
SMILES: O=C(CCC(=O)OC(Cn1ccnc1)c1cccc(Br)c1)OCn1cc(F)c(=O)[nH]c1=O (centres unmarked) [Compound 3, 1‐[1‐(3‐bromophenyl)‐2‐(1H‐imidazol‐1‐yl)ethyl]4‐(5‐fluoro‐2,4‐dioxo‐1,2,3,4‐tetrahydropyrimidin‐1‐yl)methyl butanedioate]
Effect on cell viability [1]: lower effect on BEAS-2B cells viability comparing to the 5-FU effects
